Laboratory results taken from PMC4837003.

Target: HLA-A*0201 heavy chain with β2-microglobulin
Test: differential scanning fluorimetry

Question: MART-1_(26(2L)-35) peptide was tested. Which apparent Tm by DSF did it give?
Answer: 59.4 °C

Question: And the half-life of the complex (slowest phase, peptide dissociation)?
Answer: 16.9 h
